The list shows a part of the results, in another mix than the full data. Inconclusive results are not listed. The source made the active and inactive calls. The call rests on the fitted dose curve; in most records, active means well fitted inhibition curve with a large enough effect; inconclusive means small, poorly fitted or top-dose-only effect; inactive means no such curve, though single readings can be large or run the other way.
Potency means the concentration at half of the fitted maximal effect.

Chains of the proteins cited; added tags and fusions are not shown. Lines headed by an entry give the natural chain unless they say otherwise; changes in a name come on top.
UniProt Q8IUX4: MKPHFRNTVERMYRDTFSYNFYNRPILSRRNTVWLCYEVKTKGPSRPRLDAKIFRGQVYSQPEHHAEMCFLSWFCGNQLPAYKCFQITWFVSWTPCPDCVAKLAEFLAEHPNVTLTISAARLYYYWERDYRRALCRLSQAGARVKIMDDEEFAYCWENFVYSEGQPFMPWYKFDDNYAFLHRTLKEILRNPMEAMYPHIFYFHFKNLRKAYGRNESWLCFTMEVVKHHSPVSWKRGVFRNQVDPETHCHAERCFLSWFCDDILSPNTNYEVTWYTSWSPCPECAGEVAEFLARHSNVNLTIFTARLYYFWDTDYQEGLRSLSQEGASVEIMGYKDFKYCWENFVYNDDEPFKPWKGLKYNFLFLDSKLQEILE

The assay addresses DNA dC->dU-editing enzyme APOBEC-3F (Homo sapiens) (UniProt Q8IUX4). The experiment in a line: qHTS for inhibitors of Vif-A3F interactions: Cherry picks counterscreen. Further: nearly all actives have a fitted effect of over 65% in size. The note with it: HeLa A3F-eYFP/Vif cells, eYFP fluorescence, 24 h. From the text:
The recent discovery and characterization of host restriction factors, which provide a potent defense to invading retroviruses, has provided new targets for antiviral drug development. APOBEC3G (A3G) and APOBEC3F (A3F) are potent cytidine deaminases that block HIV-1 replication; HIV-1 expresses the Vif protein, which counteracts A3G and A3F by binding to them and inducing their proteasomal degradation. The Vif-A3G and Vif-A3F interactions provide two potential targets for development of small molecules which can interfere with the ability of Vif to degrade A3G or A3F. […] To identify inhibitors that can interfere with Vif mediated degradation of A3G and A3F, we have developed Hela cell lines that stably express A3G or A3F tagged with eYFP at the C-terminal end (A3G-eYFP or A3F-eYFP, respectively) and Vif. In the absence of an inhibitor, Vif induces degradation of A3G-eYFP and A3F-eYFP, and the cells are not fluorescent. In the presence of an inhibitor, it is expected that Vif will be unable to degrade A3G-eYFP and/or A3F-eYFP, resulting in an increase in yellow fluorescence. […]
A3F-Vif cells were harvested from T225 flask and resuspended in phenol free OPTI-MEM medium with 5% FBS. […] After that, the plates were measured on Acumen Explorer (TTP Lab Tech). The fluorescence was detected by 488 nm/Ex and […].
For the molecule `CC[n+]1c(/C=C/N(C)c2ccccc2)oc2ccccc21`, the Potency was active: 5.8 µM.
